This note sets out measurements from US8846929B2, “Substituted-quinoxaline-type piperidine compounds and the uses thereof” (priority 2007, dated 2014).

Amino acid sequences for entries named in this document (tags omitted). A change or cut given only in a name is not applied to a line headed by its entry.
UniProt P41146: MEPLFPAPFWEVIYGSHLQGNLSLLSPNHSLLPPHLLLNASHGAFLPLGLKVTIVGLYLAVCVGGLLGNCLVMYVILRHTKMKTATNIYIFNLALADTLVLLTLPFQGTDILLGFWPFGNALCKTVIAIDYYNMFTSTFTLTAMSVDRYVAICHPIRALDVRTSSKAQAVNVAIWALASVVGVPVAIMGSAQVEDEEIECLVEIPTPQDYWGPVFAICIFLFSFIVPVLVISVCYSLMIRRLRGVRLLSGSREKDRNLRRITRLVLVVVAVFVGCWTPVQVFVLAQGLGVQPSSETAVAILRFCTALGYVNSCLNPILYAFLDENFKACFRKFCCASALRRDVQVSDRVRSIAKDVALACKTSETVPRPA
UniProt P41145: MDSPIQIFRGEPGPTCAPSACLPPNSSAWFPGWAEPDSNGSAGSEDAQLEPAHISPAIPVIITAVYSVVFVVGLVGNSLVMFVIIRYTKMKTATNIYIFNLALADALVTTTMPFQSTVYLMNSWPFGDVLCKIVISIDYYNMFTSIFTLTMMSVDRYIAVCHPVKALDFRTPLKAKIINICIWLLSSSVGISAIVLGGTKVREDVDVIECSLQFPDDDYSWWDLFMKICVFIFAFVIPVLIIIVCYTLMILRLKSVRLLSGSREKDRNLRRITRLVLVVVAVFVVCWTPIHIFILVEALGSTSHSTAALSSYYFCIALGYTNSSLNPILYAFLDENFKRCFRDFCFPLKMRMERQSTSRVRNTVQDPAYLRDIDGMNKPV
UniProt P41143: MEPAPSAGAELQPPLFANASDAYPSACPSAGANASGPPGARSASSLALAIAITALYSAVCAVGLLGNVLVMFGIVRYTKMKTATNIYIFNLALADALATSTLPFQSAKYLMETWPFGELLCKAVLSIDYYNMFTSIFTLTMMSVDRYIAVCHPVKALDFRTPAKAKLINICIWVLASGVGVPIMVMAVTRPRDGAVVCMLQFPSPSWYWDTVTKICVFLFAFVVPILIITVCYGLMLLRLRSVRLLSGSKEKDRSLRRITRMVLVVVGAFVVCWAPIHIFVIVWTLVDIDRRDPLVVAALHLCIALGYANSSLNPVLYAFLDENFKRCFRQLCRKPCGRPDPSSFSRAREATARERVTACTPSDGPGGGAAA
UniProt P35372: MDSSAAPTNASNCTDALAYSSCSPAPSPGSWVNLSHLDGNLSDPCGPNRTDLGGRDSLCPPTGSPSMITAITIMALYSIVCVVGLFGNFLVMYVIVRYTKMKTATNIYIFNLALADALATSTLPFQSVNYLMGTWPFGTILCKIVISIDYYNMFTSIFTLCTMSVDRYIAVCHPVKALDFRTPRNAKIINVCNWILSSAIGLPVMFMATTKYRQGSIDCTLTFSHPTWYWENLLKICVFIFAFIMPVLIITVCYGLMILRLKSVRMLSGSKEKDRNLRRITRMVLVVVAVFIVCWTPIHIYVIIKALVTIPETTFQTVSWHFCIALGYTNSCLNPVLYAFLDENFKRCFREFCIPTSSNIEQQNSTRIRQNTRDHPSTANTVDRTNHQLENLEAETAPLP

Test [1] has as its target T1, human opioid receptor-like (ORL-1) (Homo sapiens (Human), UniProt P41146). As to the kind of experiment: In vitro ORL-1 receptor [35S]GTPγS functional assay. It is filed as biochemical. The settings on record: mean ± SEM; for EC50: read-out: GTPγS ORL-1 EC50. For orientation: GTPγS is a poorly hydrolysed GTP analogue; its binding reports G protein activation.
Test [2] deals with T2, kappa opioid receptor (Homo sapiens (Human), UniProt P41145). As to the kind of experiment: In vitro kappa-opioid receptor binding assay ([3H]-U69,593 displacement). The settings on record: read-out: Ki [Average ± Std Deviation] Opioid Receptor Kappa; membranes from recombinant HEK-293 cells.
For a further test, the target named is delta opioid receptor (Homo sapiens (Human), UniProt P41143). Description: In vitro delta-opioid receptor binding assay ([3H]-Naltrindole displacement). The settings on record: read-out: Ki [Average ± Std Deviation] Opioid Receptor Delta; recombinant receptor expressed in CHO-K1 cells.
Test [3] concerns the target T1, human opioid receptor-like (ORL-1). As to the kind of experiment: In vitro ORL-1 receptor binding assay ([3H]-nociceptin displacement). Conditions: read-out: Ki [Average ± Std Deviation] ORL-1; membranes from recombinant HEK-293 cells.
Another test concerns the target μ-opioid receptor (Homo sapiens (Human), UniProt P35372). Description: In vitro mu-opioid receptor binding assay ([3H]-diprenorphine displacement). The settings on record: read-out: Ki [Average ± Std Deviation] Opioid Receptor Mu.
The target of test [4] is T2, kappa opioid receptor. As to the kind of experiment: In vitro kappa-opioid receptor [35S]GTPγS functional assay. The test is classed as biochemical. Conditions: mean ± SEM; for EC50: read-out: GTPγS Opioid Receptor Kappa EC50.

Where only a bound is given, the exact number is not on record here.

For “1-(4-((endo)-8-cyclooctyl-8-azabicyclo[3.2.1]octan-3-yl)-3-oxo-3,4-dihydroquinoxalin-2-yl)-3-hydroxypyrrolidine-3-carboxylic acid”, the “GTPγS ORL-1 Emax” value in test [1] came to 40.3 ± 2.3%. Also, the Ki at kappa opioid receptor [2] is 1650 nM; at delta opioid receptor, 8880 nM; in test [3] it was 46.1 nM; on μ-opioid receptor it was 5200 nM.
As for “2-(1-(4-((endo)-8-cyclooctyl-8-azabicyclo[3.2.1]octan-3-yl)-3-oxo-3,4-dihydroquinoxalin-2-yl)piperidin-4-yl)acetic acid”, in test [1], the “GTPγS ORL-1 Emax” value is on record as 50.3 ± 4.4%. Besides, the Ki on delta opioid receptor amounted to 1300 nM; on μ-opioid receptor it was 4700 nM.
The term EC50 denotes the concentration at which the effect is half-maximal. Turning to “2-(1-(4-((endo)-8-cyclooctyl-8-azabicyclo[3.2.1]octan-3-yl)-3-oxo-3,4-dihydroquinoxalin-2-yl)pyrrolidin-3-yl)acetic acid”, in test [1], the “GTPγS ORL-1 Emax” value is on record as 73 ± 2%. Moreover, in test [1], the EC50 was determined as 924 nM. The Ki on kappa opioid receptor [2] worked out at 1200 nM; on delta opioid receptor it was 24100 nM; in test [3] it was 52.1 nM.
On to “2-(2-(4-((endo)-8-cyclooctyl-8-azabicyclo[3.2.1]octan-3-yl)-3-oxo-3,4-dihydroquinoxaline-2-carboxamido)thiazol-4-yl)acetic acid”, for which, in test [1], the “GTPγS ORL-1 Emax” value was 29 ± 3% and the EC50 was determined as 503 nM. Moreover, the Ki in test [3] amounted to 144 nM.
As to “2-(4-((endo)-8-cyclooctyl-8-azabicyclo[3.2.1]octan-3-yl)-3-oxo-3,4-dihydroquinoxalin-2-ylamino)benzoic acid”, the Ki in test [3] was 538 nM.
Consider “2-(4-((exo)-8-cyclooctyl-8-azabicyclo[3.2.1]octan-3-yl)-3-oxo-3,4-dihydroquinoxalin-2-ylamino)acetic acid”, for which, in test [3], the Ki worked out at 1720 nM.
With “2-((2-amino-2-oxoethyl)(2-(4-((endo)-8-cyclooctyl-8-azabicyclo[3.2.1]octan-3-yl)-3-oxo-3,4-dihydroquinoxalin-2-ylamino)ethyl)amino)acetic acid”, the “GTPγS ORL-1 Emax” value in test [1] turned out to be 80.3 ± 3.8%. Besides, the EC50 came out at 277 nM in test [1] and 4460 nM at kappa opioid receptor [4]. In addition, the Ki at kappa opioid receptor [2] was 740 nM; on delta opioid receptor, more than 20000 nM; in test [3], 16.8 nM. For the same substance, the “GTPγS Opioid Receptor Kappa Emax” value on kappa opioid receptor [4] came out at 9.3 ± 1.3%.
On to “2-((4-((endo)-8-cyclooctyl-8-azabicyclo[3.2.1]octan-3-yl)-3-oxo-3,4-dihydroquinoxalin-2-yl)(2-hydroxyethyl)amino)acetic acid”, for which the Ki at kappa opioid receptor [2] worked out at 2030 nM; at delta opioid receptor it was 548000 nM; in test [3], 61.7 nM; on μ-opioid receptor, 11900 nM.
“3-(4-((endo)-8-cyclooctyl-8-azabicyclo[3.2.1]octan-3-yl)-3-oxo-3,4-dihydroquinoxalin-2-ylamino)isonicotinic acid”: in test [1], the “GTPγS ORL-1 Emax” value is 58 ± 1.2%. The 50% effective concentration (EC50) turned out to be 212 nM in test [1] and 13400 nM at kappa opioid receptor [4]. In addition, the Ki at kappa opioid receptor [2] was found to be 64.2 nM; at delta opioid receptor, 32200 nM; in test [3] it was 502 nM. Moreover, the “GTPγS Opioid Receptor Kappa Emax” value on kappa opioid receptor [4] is on record as 10.0 ± 1.2%.
As to “3-(4-((endo)-8-cyclooctyl-8-azabicyclo[3.2.1]octan-3-yl)-3-oxo-3,4-dihydroquinoxaline-2-carboxamido)propanoic acid”, the Ki in test [3] was determined as 382 nM.
In the case of “3-oxo-4-(1-(1-propylcyclooctyl)piperidin-4-yl)-3,4-dihydroquinoxaline-2-carboxylate”, the Ki was 3270 nM at kappa opioid receptor [2], 538000 nM on delta opioid receptor, 45.5 nM in test [3] and 57800 nM on μ-opioid receptor.
Turning to “3-oxo-4-((endo)-8-(pentan-3-yl)-8-azabicyclo[3.2.1]octan-3-yl)-3,4-dihydroquinoxaline-2-carboxylic acid”, in test [3], the Ki stood at 1830 nM.
Take “4-(1-(1-ethylcyclooctyl)piperidin-4-yl)-3-oxo-3,4-dihydroquinoxaline-2-carboxylate”: the Ki at kappa opioid receptor [2] was 2470 nM; at delta opioid receptor, 524000 nM; in test [3], 30.2 nM; on μ-opioid receptor, 16300 nM.
Consider “4-((4-((endo)-8-cyclooctyl-8-azabicyclo[3.2.1]octan-3-yl)-3-yl)-3-oxo-3,4-dihydroquinoxalin-2-ylamino)methyl)benzoic acid”, for which the Ki in test [3] was determined as 456 nM.
Take “4-((endo)-8-(1,2-dihydroacenaphthylen-1-yl)-8-azabicyclo[3.2.1]octan-3-yl)-3-oxo-3,4-dihydroquinoxaline-2-carboxylic acid”: the “GTPγS ORL-1 Emax” value in test [1] came to 99.3 ± 1.3%. The EC50 in test [1] was found to be 1020 nM. Moreover, the Ki on kappa opioid receptor [2] came out at 1600 nM; in test [3], 52.1 nM; on μ-opioid receptor, 2660 nM.
Turning to “4-((endo)-8-(2,3-dihydro-1H-inden-2-yl)-8-azabicyclo[3.2.1]octan-3-yl)-3-oxo-3,4-dihydroquinoxaline-2-carboxylic acid”, the Ki in test [3] turned out to be 596 nM.
For “4-((endo)-8-(2,6-dimethylhept-4-yn-3-yl)-8-azabicyclo[3.2.1]octan-3-yl)-3-oxo-3,4-dihydroquinoxaline-2-carboxylic acid”, the Ki in test [3] amounted to 740 nM.
Same read-out and setting: the figure for “4-((endo)-8-(6-methylhept-4-yn-3-yl)-8-azabicyclo[3.2.1]octan-3-yl)-3-oxo-3,4-dihydroquinoxaline-2-carboxylic acid” is 383 nM; for “4-((endo)-8-((cis)-4-tert-butylcyclohexyl)-8-azabicyclo[3.2.1]octan-3-yl)-3-oxo-3,4-dihydroquinoxaline-2-carboxylic acid” it is 1190 nM.
In the case of “4-((endo)-8-((exo)-bicyclo[3.3.1]nonan-9-yl)-8-azabicyclo[3.2.1]octan-3-yl)-3-oxo-3,4-dihydroquinoxaline-2-carboxylic acid”, the Ki was 1550 nM on kappa opioid receptor [2], 1970 nM at delta opioid receptor, 4.8 nM in test [3] and 1030 nM at μ-opioid receptor.
As to “4-((endo)-8-((trans)-4-isopropylcyclohexyl)-8-azabicyclo[3.2.1]octan-3-yl)-3-oxo-3,4-dihydroquinoxaline-2-carboxylic acid”, the Ki in test [3] came out at 400 nM.
Still for that read-out and setting: the figure for “4-((endo)-8-((trans)-4-tert-butylcyclohexyl)-8-azabicyclo[3.2.1]octan-3-yl)-3-oxo-3,4-dihydroquinoxaline-2-carboxylic acid” is 962 nM; for “4-((endo)-8-cycloheptyl-8-azabicyclo[3.2.1]octan-3-yl)-3-oxo-3,4-dihydroquinoxaline-2-carboxylic acid” it is 1340 nM.
On to “4-((endo)-8-cyclononyl-8-azabicyclo[3.2.1]octan-3-yl)-3-oxo-3,4-dihydroquinoxaline-2-carboxylic acid”, for which the Ki on kappa opioid receptor [2] was determined as 469 nM; on delta opioid receptor, 1520 nM; in test [3], 2 nM; at μ-opioid receptor it was 396 nM.
As for “4-((endo)-9-cyclodecyl-9-azabicyclo[3.3.1]nonan-3-yl)-3-oxo-3,4-dihydroquinoxaline-2-carboxylic acid”, the “GTPγS ORL-1 Emax” value in test [1] was determined as 104 ± 4.6%. Also, the EC50 in test [1] is 11.6 nM; at kappa opioid receptor [4], more than 20000 nM. The results for the Ki (on kappa opioid receptor [2]; on delta opioid receptor; in test [3]) were 565 nM, more than 20000 nM and 1.8 nM, respectively. Moreover, the “GTPγS Opioid Receptor Kappa Emax” value at kappa opioid receptor [4] was 3.3 ± 1.9%.
“4-((endo)-9-cyclooctyl-3-methyl-3,9-diazabicyclo[3.3.1]nonan-7-yl)-3-oxo-3,4-dihydroquinoxaline-2-carboxylic acid”: the Ki in test [3] is 3290 nM.
On to “(2S)-2-(4-((endo)-8-cyclooctyl-8-azabicyclo[3.2.1]octan-3-yl)-3-oxo-3,4-dihydroquinoxalin-2-ylamino)-3-hydroxypropanoic acid”, for which, in test [1], the “GTPγS ORL-1 Emax” value was determined as 29 ± 2% and the EC50 worked out at 19.1 nM. Also, in test [3], the Ki turned out to be 8.2 nM.
Turning to “(2S)-2-(4-((exo)-8-cyclooctyl-8-azabicyclo[3.2.1]octan-3-yl)-3-oxo-3,4-dihydroquinoxalin-2-yl amino)-3-hydroxypropanoic acid”, the Ki in test [3] is 285 nM.
On the same count and under the same terms, the figure for “(R)-2-(4-((endo)-8-cyclooctyl-8-azabicyclo[3.2.1]octan-3-yl)-3-oxo-3,4-dihydroquinoxalin-2-ylamino)succinic acid” is 437 nM.
Consider “endo-4-(8-adamantan-2-yl-8-aza-bicyclo[3.2.1]oct-3-yl)-3-oxo-3,4-dihydro-quinoxaline-2-carboxylic acid”, for which, in test [1], the “GTPγS ORL-1 Emax” value is recorded as 33.3 ± 2.2% and the concentration giving a half-maximal response (EC50) amounted to 271 nM. Further, the Ki on kappa opioid receptor [2] was found to be 3500 nM. Further, the Ki in test [3] was determined as 89.9 nM.
For the substance “endo-4-[8-(3-hydroxy-adamantan-1-yl)-8-aza-bicyclo[3.2.1]oct-3-yl]-3-oxo-3,4-dihydro-quinoxaline-2-carboxylic acid”, the Ki in test [3] amounted to 912 nM.
Take “endo-4-[9-(3,5-dimethyl-adamantan-1-yl)-9-aza-bicyclo[3.3.1]non-3-yl]-3-oxo-3,4-dihydro-quinoxaline-2-carboxylic acid”: the results for the Ki (on kappa opioid receptor [2]; in test [3]; on μ-opioid receptor) were 6870 nM, 38.1 nM and 4750 nM, respectively.
As for “ethyl 4-((endo)-9-cyclooctyl-3-oxa-9-azabicyclo[3.3.1]nonan-7-yl)-3-oxo-3,4-dihydroquinoxaline-2-carboxylate”, in test [3], the Ki worked out at 911 nM.
Same read-out and setting: the figure for “exo-4-(8-adamantan-1-yl-8-aza-bicyclo[3.2.1]oct-3-yl)-3-oxo-3,4-dihydro-quinoxaline-2-carboxylic acid” is 275 nM.
